This is an account of results in patent US20170320967A1.

In one assay the target is recombinant human TNFα (human) (UniProt P01375). Description: cell-based or functional assay.
Take “Binding Protein 10, (anti-IL13 × anti-IL4) × anti-TNFα (from UniProt P0DOX5 2-448)”: the TNFα IC50 (HEK Blue Reporter Assay) worked out at 0.0476 µg/mL.

In the case of “Binding Protein 11, (anti-IL13 × anti-IL4) × anti-TNFα (from UniProt P0DOX5 2-448; P0DOX7 1-214)”, the TNFα IC50 (HEK Blue Reporter Assay) came out at 0.0265 µg/mL.

“Binding Protein 9, (anti-IL4 × anti-IL13) × anti-TNFα (from UniProt P0DOX5 2-448)”: the TNFα IC50 (HEK Blue Reporter Assay) came to 0.0395 µg/mL.

The next assay shares this target. Description: SPR (Biacore), captured antibody, TNFα as analyte.
What is called Kd is the free concentration of one partner at which half of the binding sites on the other are occupied at equilibrium, for simple one-to-one binding. A word on the koff: it is the first-order rate constant of dissociation. The term kon denotes a measure of how fast the partners come together. Consider “Binding Protein 11, (anti-IL13 × anti-IL4) × anti-TNFα (from UniProt P0DOX5 2-448; P0DOX7 1-214) (other; other documents disagree on this pair)”, for which the Kd was 0.541 nM, the off-rate constant (koff) is 0.000182 s⁻¹ and the kon came to 336000 M⁻¹ s⁻¹.

As to “Binding Protein 10, (anti-IL13 × anti-IL4) × anti-TNFα (from UniProt P0DOX5 2-448) (other; other documents disagree on this pair)”, the Kd is 2.07 nM, the off-rate (koff) worked out at 0.00029 s⁻¹ and the kon stood at 140000 M⁻¹ s⁻¹.

With “Binding Protein 9, (anti-IL4 × anti-IL13) × anti-TNFα (from UniProt P0DOX5 2-448) (other; other documents disagree on this pair)”, the Kd worked out at 2.42 nM, the koff was found to be 0.00032 s⁻¹ and the on-rate (kon) is 132000 M⁻¹ s⁻¹.
